From patent US12599590B2, “Veterinary formulations comprising rapamycin and methods of using the same for treating animal disease” (TriviumVet DAC, priority 2019, dated 2026)

Assay: Feline repeat dose toxicokinetic study of oral enteric-coated formulations
Type: in vivo
Conditions: whole blood, cats, oral enteric-coated formulation, Mean
Method: Laboratory cats were given oral enteric-coated formulations of 0.15 mg/kg, 0.45 mg/kg, or 0.75 mg/kg rapamycin three times a week for four weeks. This represents a first-in-species repeat dose test toxicokinetic study in cats. Pharmacokinetic sampling was performed after the first and last doses. FIGS. 8 and 9 show the whole blood concentration of rapamycin for 48 hours following a single dose (FIG. 8) or for 72 hours following repeated doses (FIG. 9).

Q: With `CO[C@H]1C[C@@H]2CC[C@@H](C)[C@@](O)(O2)C(=O)C(=O)N2CCCC[C@H]2C(=O)O[C@H]([C@H](C)C[C@@H]2CC[C@@H](O)[C@H](OC)C2)CC(=O)[C@H](C)/C=C(\C)[C@@H](O)[C@@H](OC)C(=O)[C@H](C)C[C@H](C)/C=C/C=C/C=C/1C` [rapamycin] as the compound, how does the Tmax (0.15 mg/kg, 0.15 mg/kg three times a week, Day 26, whole blood) read?
A: The Tmax was 2.5 h.

Q: What about the Tmax (0.45 mg/kg, 0.45 mg/kg, Day 0, whole blood) of the same compound?
A: Its Tmax is 2.5 h.
